Data on 21 molecules can be found in patent US9725445B2, “Cycloalkyl nitrile pyrazolo pyridones as Janus kinase inhibitors” (Merck Sharp & Dohme Corp., priority 2013, dated 2017).

By UniProt entry, the sequences of proteins in these tests, tags left out. Residues count along the entry.
UniProt O60674, 849-1124: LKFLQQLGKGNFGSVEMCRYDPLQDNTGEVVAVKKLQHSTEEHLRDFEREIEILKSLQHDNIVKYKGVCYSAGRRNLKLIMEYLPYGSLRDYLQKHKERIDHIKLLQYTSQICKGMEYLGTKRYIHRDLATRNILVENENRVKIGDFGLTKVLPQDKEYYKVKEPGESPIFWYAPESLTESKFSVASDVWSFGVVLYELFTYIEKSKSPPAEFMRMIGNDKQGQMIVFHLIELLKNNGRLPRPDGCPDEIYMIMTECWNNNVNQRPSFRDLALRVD
UniProt P23458, 875-1153: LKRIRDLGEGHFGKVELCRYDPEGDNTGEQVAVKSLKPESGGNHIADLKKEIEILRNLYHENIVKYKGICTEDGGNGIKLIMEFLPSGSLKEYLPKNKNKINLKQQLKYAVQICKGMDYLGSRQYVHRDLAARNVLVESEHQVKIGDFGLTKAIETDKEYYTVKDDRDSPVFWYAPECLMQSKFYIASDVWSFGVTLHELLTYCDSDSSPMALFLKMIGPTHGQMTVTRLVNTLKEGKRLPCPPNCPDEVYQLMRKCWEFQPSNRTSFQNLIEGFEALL

One experiment deals with JAK2 (Homo sapiens (Human), UniProt O60674). Briefly: Jak biochemical HTRF assay, JAK2. As to conditions: recombinant GST-tagged catalytic domain. On the procedure: (§1) Jak Biochemical HTRF Assay Protocol
(§2) The ability of compounds to inhibit the activity of JAK1, JAK2, JAK3, and Tyk2 was measured using a recombinant purified GST-tagged catalytic domain for each enzyme (Invitrogen JAK1 #M4290, JAK2 #M4290, JAK3 #M4290, Tyk2 #M4290) in an HTRF format biochemical assay. […] The basic assay protocol is as follows: First, 250 nL of diluted compounds in DMSO were dispensed into the wells of a dry 384-well Black plate (Greiner #781076) using a Labcyte Echo 555 acoustic dispenser. Subsequent reagent additions employed an Agilent Bravo. […] After equilibration, 2 μL of 10×ATP in 1× assay buffer was added to initiate the kinase reaction and the plates were shaken and then incubated at room temperature for 120 minutes. […] Plates were shaken and centrifuged and then incubated 60 minutes at room temperature and then read on a Perkin Elmer Envision (λex=337 nm, λem=665 and 615 nm, TRF delay time=20 μs). HTRF signal=10,000*665 nm reading/615 nm reading. After normalization to untreated controls, the percent inhibition of the HTRF signal at each compound concentration was calculated. The plot of percent inhibition versus the log of compound concentration was fit with a 4-parameter dose response equation to calculate IC50 values.
(§3) Final Reaction Conditions were:
(§4) Examples of the instant invention were evaluated in JAK1 and JAK2 in vitro binding assays.
On the technique in general: Time-resolved FRET reads energy transfer from a long-lived donor to a nearby acceptor.
For the molecule `N#C[C@@H]1CCCCC[C@H]1n1nc(Nc2ccc3c(c2)CN(C(=O)N2CCCCC2)C3)c2c(=O)[nH]ccc21` (single isomer, unassigned) [Example 15-53, (1R,2R or 1S,2S)-2-(4-oxo-3-{[2-(piperidin-1-ylcarbonyl)-2,3-dihydro-1H-isoindol-5-yl]amino}-4,5-dihydro-1H-pyrazolo[4,3-c]pyridin-1-yl)cycloheptanecarbonitrile], the IC50 was 1.1 nM. As for `N#C[C@H]1CCCC[C@@H]1n1nc(Nc2ccc(C3(C(F)(F)F)CCCN3)cc2)c2c(=O)[nH]ccc21` (single isomer, unassigned) [Example 15-61, (1S,2S)-2-[4-oxo-3-({4-[(2R or 2S)-2-(trifluoromethyl)pyrrolidin-2-yl]phenyl}amino)-4,5-dihydro-1H-pyrazolo[4,3-c]pyridin-1-yl]cyclohexanecarbonitrile], the IC50 was 0.21 nM. For `N#C[C@H]1CCCC[C@@H]1n1nc(Nc2ccc(C3(C(F)(F)F)CCCN3)cc2)c2c(=O)[nH]ccc21` (single isomer, unassigned) [Example 15-62, (1S,2S)-2-[4-oxo-3-({4-[(2S or 2R)-2-(trifluoromethyl)pyrrolidin-2-yl]phenyl}amino)-4,5-dihydro-1H-pyrazolo[4,3-c]pyridin-1-yl]cyclohexanecarbonitrile], the IC50 worked out at 0.34 nM. With `N#C[C@H]1CCCCC[C@@H]1n1nc(Nc2ccc(C3(C(F)(F)F)CCCCN3)cc2)c2c(=O)[nH]ccc21` (single isomer, unassigned) [Example 15-69, (1S,2S or 1R,2R)-2-[4-oxo-3-({4-[(2S or 2R)-2-(trifluoromethyl)piperidin-2-yl]phenyl}amino)-4,5-dihydro-1H-pyrazolo[4,3-c]pyridin-1-yl]cycloheptanecarbonitrile], the 50% inhibitory concentration (IC50) is 0.34 nM. Take `N#C[C@H]1CCCCC[C@@H]1n1nc(Nc2ccc(C3(C(F)(F)F)CCCCN3)cc2)c2c(=O)[nH]ccc21` (single isomer, unassigned) [Example 15-70, (1S,2S or 1R,2R)-2-[4-oxo-3-({4-[(2R or 2S)-2-(trifluoromethyl)piperidin-2-yl]phenyl}amino)-4,5-dihydro-1H-pyrazolo[4,3-c]pyridin-1-yl]cycloheptanecarbonitrile]: the IC50 is 0.4 nM.

In the case of `N#C[C@H]1CCC[C@@H]1n1nc(Nc2ccc(C3(C(F)(F)F)CCCCN3)cc2)c2c(=O)[nH]ccc21` (single isomer, unassigned) [Example 15-71, (1S,2S)-2-[4-oxo-3-({4-[(2S or 2R)-2-(trifluoromethyl)piperidin-2-yl]phenyl}amino)-4,5-dihydro-1H-pyrazolo[4,3-c]pyridin-1-yl]cyclopentanecarbonitrile], the IC50 is 0.085 nM.

Regarding `N#C[C@H]1CCC[C@@H]1n1nc(Nc2ccc(C3(C(F)(F)F)CCCCN3)cc2)c2c(=O)[nH]ccc21` (single isomer, unassigned) [Example 15-72, (1S,2S)-2-[4-oxo-3-({4-[(2R or 2S)-2-(trifluoromethyl)piperidin-2-yl]phenyl}amino)-4,5-dihydro-1H-pyrazolo[4,3-c]pyridin-1-yl]cyclopentanecarbonitrile], the IC50 was 0.09 nM. Turning to `Cc1cc(Nc2nn([C@@H]3CC(F)(F)C[C@@H]3C#N)c3cc[nH]c(=O)c23)ccc1C(=O)N1CCCC1` (single isomer, unassigned) [Example 22-5, (1S,2R or 1R,2S)-4,4-difluoro-2-(3-{[3-methyl-4-(pyrrolidin-1-ylcarbonyl)phenyl]amino}-4-oxo-4,5-dihydro-1H-pyrazolo[4,3-c]pyridin-1-yl)cyclopentanecarbonitrile], the IC50 is 3.3 nM. Regarding `CC(C)S(=O)(=O)c1ccc(Nc2nn([C@H]3CCCC[C@@H]3C#N)c3cc[nH]c(=O)c23)cc1` [Example 3-141, (1S,2S)-2-[3-({4-[(1-methylethyl)sulfonyl]phenyl}amino)-4-oxo-4,5-dihydro-1H-pyrazolo[4,3-c]pyridin-1-yl]cyclohexanecarbonitrile], the IC50 was determined as 0.69 nM. Consider `N#C[C@H]1CCCC[C@@H]1n1nc(Nc2ccc([C@]3(O)CC[C@H](C(=O)O)CC3)cc2)c2c(=O)[nH]ccc21` [Example 17-2], for which the IC50 turned out to be 2.7 nM.

A further experiment addresses JAK1 (Homo sapiens (Human), UniProt P23458). Briefly: Jak biochemical HTRF assay, JAK1. The settings on record: recombinant GST-tagged catalytic domain. On the procedure: as §1, §2, §3, §4
Turning to `N#C[C@H]1CCCC[C@@H]1n1nc(Nc2ccc(C(O)C(F)F)cc2)c2c(=O)[nH]ccc21` (mixture of isomers) [Example 10-1, Racemic-(1S,2S)-2-(3-((4-(2,2-difluoro-1-hydroxyethyl)phenyl)amino)-4-oxo-4,5-dihydro-1H-pyrazolo[4,3-c]pyridin-1-yl)cyclohexanecarbonitrile], the IC50 was found to be 0.14 nM.

Turning to `CC(C)S(=N)(=O)c1ccc(Nc2nn(C3CCC[C@@H]3C#N)c3cc[nH]c(=O)c23)cc1` (single isomer, unassigned) [Example 3-108, (1S,2S)-2-[3-({4-[(S or R)-S-(1-methylethyl)sulfonimidoyl]phenyl}amino)-4-oxo-4,5-dihydro-yl]cyclopentanecarbonitrile], the IC50 was found to be 0.4 nM. As for `CC(C)S(=N)(=O)c1ccc(Nc2nn(C3CCC[C@@H]3C#N)c3cc[nH]c(=O)c23)cc1` (single isomer, unassigned) [Example 3-109, (1S,2S)-2-[3-({4-[(S or R)-S-(1-methylethyl)sulfonimidoyl]phenyl}amino)-4-oxo-4,5-dihydro-1H-pyrazolo[4,3-c]pyridin-1-yl]cyclopentanecarbonitrile], the concentration for half-maximal inhibition (IC50) was found to be 0.22 nM.

For `CC(C)NC(c1ccc(Nc2nn([C@H]3CCC[C@@H]3C#N)c3cc[nH]c(=O)c23)cc1)C(F)(F)F` (single isomer, unassigned) [Example 3-115, (1S,2S)-2-{4-oxo-3-[(4-{(1R or 1S)-2,2,2-trifluoro-1-[(1-methylethyl)amino]ethyl}phenyl)amino]-4,5-dihydro-1H-pyrazolo[4,3-c]pyridin-1-yl}cyclopentanecarbonitrile], the IC50 was found to be 0.22 nM. As for `CC(C)NC(c1ccc(Nc2nn([C@H]3CCC[C@@H]3C#N)c3cc[nH]c(=O)c23)cc1)C(F)(F)F` (single isomer, unassigned) [Example 3-116, (1S,2S)-2-{4-oxo-3-[(4-{(1S or 1R)-2,2,2-trifluoro-1-[(1-methylethyl)amino]ethyl}phenyl)amino]-4,5-dihydro-1H-pyrazolo[4,3-c]pyridin-1-yl}cyclopentanecarbonitrile], the IC50 is 0.18 nM. Regarding `CC(O)(c1ccc(Nc2nn([C@H]3CCC[C@@H]3C#N)c3cc[nH]c(=O)c23)cc1)C(F)(F)F` (single isomer, unassigned) [Example 3-138, (1S,2S)-2-[4-oxo-3-({4-[(1R or 1S)-2,2,2-trifluoro-1-hydroxy-1-methylethyl]phenyl}amino)-4,5-dihydro-1H-pyrazolo[4,3-c]pyridin-1-yl]cyclopentanecarbonitrile], the IC50 stood at 0.17 nM.

`CC(O)(c1ccc(Nc2nn([C@H]3CCC[C@@H]3C#N)c3cc[nH]c(=O)c23)cc1)C(F)(F)F` (single isomer, unassigned) [Example 3-139, (1S,2S)-2-[4-oxo-3-({4-[(1R or 1S)-2,2,2-trifluoro-1-hydroxy-1-methylethyl]phenyl}amino)-4,5-dihydro-1H-pyrazolo[4,3-c]pyridin-1-yl]cyclopentanecarbonitrile]: the IC50 worked out at 0.093 nM. `N#C[C@H]1CCCC[C@@H]1n1nc(Nc2ccc3c(c2)C(O)C2(CCCCC2)S3(=O)=O)c2c(=O)[nH]ccc21` (single isomer, unassigned) [Example 3-174, (1S,2S)-2-(3-{[(3S or 3R)-3-hydroxy-1,1-dioxido-3H-spiro[1-benzothiophene-2,1′-cyclohexan]-5-yl]amino}-4-oxo-4,5-dihydro-1H-pyrazolo[4,3-c]pyridin-1-yl)cyclohexanecarbonitrile]: the IC50 turned out to be 0.44 nM.

Take `N#C[C@H]1CCCC[C@@H]1n1nc(Nc2ccc3c(c2)C(O)C2(CCCCC2)S3(=O)=O)c2c(=O)[nH]ccc21` (single isomer, unassigned) [Example 3-175, (1S,2S)-2-(3-{[(3R or 3S)-3-hydroxy-1,1-dioxido-3H-spiro[1-benzothiophene-2,1′-cyclohexan]-5-yl]amino}-4-oxo-4,5-dihydro-1H-pyrazolo[4,3-c]pyridin-1-yl)cyclohexanecarbonitrile]: the half-maximal inhibitory concentration (IC50) came to 0.1 nM.

With `CC(C)C(c1ccc(Nc2nn([C@H]3CCCC[C@@H]3C#N)c3cc[nH]c(=O)c23)cc1)n1ccnn1` (single isomer, unassigned) [Example 15-23, (1S,2S)-2-[3-({4-[(1R or 1S)-2-methyl-1-(1H-1,2,3-triazol-1-yl)propyl]phenyl}amino)-4-oxo-4,5-dihydro-1H-pyrazolo[4,3-c]pyridin-1-yl]cyclohexanecarbonitrile], the IC50 amounted to 0.079 nM.

For the molecule `CC(C)C(c1ccc(Nc2nn([C@H]3CCCC[C@@H]3C#N)c3cc[nH]c(=O)c23)cc1)n1ccnn1` (single isomer, unassigned) [Example 15-24, (1S,2S)-2-[3-({4-[(1S or 1R)-2-methyl-1-(1H-1,2,3-triazol-1-yl)propyl]phenyl}amino)-4-oxo-4,5-dihydro-1H-pyrazolo[4,3-c]pyridin-1-yl]cyclohexanecarbonitrile], the IC50 amounted to 0.069 nM.

One may read the IC50 as the concentration needed to halve the response being measured.
